Source: patent US9808528B2, “Protein-polymer-drug conjugates and methods of using same” (priority 2014, dated 2017)

assay: Mouse plasma PK (Example 27, Table IX); conditions: total AF-HPA by LC-MS/MS; single IV dose, CD-1 mice

In order of falling “Plasma PK AUC0 to 336” value:
1. Trastuzumab-((EG2-MI (2%)-(10 kDa PHF-BA (28%)-(AF-HPA-Ala (9%) [Example 18C]  25100 ng·h/mL
2. Trastuzumab-((EG2-MI (2%)-(10 kDa PHF-BA (28%)-(AF-HPA-Ala (9%) [Example 18B]  22700 ng·h/mL
3. Trastuzumab-((EG2-MI (2%)-(10 kDa PHF-BA (28%)-(AF-HPA-Ala (9%) [Example 18A]  19400 ng·h/mL

In order of rising “Plasma PK T1/2” value:
1. Trastuzumab-((EG2-MI (2%)-(10 kDa PHF-BA (28%)-(AF-HPA-Ala (9%) [Example 18C]  119 h
2. Trastuzumab-((EG2-MI (2%)-(10 kDa PHF-BA (28%)-(AF-HPA-Ala (9%) [Example 18B]  139 h
3. Trastuzumab-((EG2-MI (2%)-(10 kDa PHF-BA (28%)-(AF-HPA-Ala (9%) [Example 18A]  154 h
